{"sequences": {"note": "Chains of the proteins cited; added tags and fusions are not shown. Lines headed by an entry give the natural chain unless they say otherwise; changes in a name come on top.", "UniProt Q9Y5N1": "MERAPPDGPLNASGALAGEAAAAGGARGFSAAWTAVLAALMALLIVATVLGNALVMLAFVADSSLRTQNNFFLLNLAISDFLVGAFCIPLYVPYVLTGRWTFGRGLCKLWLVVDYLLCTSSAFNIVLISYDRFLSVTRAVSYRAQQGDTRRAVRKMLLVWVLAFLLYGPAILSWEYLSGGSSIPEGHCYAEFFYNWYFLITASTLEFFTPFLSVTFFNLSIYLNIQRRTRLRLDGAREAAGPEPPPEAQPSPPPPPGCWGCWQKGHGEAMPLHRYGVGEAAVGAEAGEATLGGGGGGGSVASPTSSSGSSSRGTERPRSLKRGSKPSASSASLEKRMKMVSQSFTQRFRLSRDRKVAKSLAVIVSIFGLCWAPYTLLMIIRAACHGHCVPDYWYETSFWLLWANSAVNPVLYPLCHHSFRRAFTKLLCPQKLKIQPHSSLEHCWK"}, "source": "ChEMBL document CHEMBL4732109", "about": "“Structural modifications in the distal, regulatory region of histamine H receptor antagonists leading to the identification of a potent anti-obesity agent” (Eur J Med Chem, 2021)", "target": "Histamine H3 receptor (Homo sapiens, UniProt Q9Y5N1)", "experiment": "Displacement of [3H]UR-PI294 from human SP-FLAG-tagged H3R expressed in HEK293T cells measured after 60 to 120 mins by liquid scintillation counting analysis", "type": "cell-based", "data": [{"smiles": "O=C(c1ccc(OCCCc2cnc[nH]2)cc1)C1CC1", "note": "[CIPROXIFAN]", "values": [{"measurement": "Ki", "result": 48.9, "unit": "nM"}]}]}
